# Source: PubChem BioAssay AID1554 (Broad Institute, 2009)
# The entries are a selection whose mix differs from that of the whole data set. The source made the active and inactive calls. Cut-off read from the data, not from the text of the source: active = inhibition above about 50%; inconclusive = no clear call, values can overlap the other calls; inactive = below that.
# Assay: PubChem AID 1554
# Settings: BJeLR (HRASV12) viability, CellTiter-Glo ATP luminescence, 48 h; hits give high values; concentration not given here
row,Compound,inhibition
1,O=[N+]([O-])c1cccc(NC2=NCC(CBr)S2)c1 (centres undefined),inactive: 0.561%
2,O=C(O)CNc1ccc([As](=O)(O)O)cc1,inactive: -5.84%
3,CC(C)(C)C(=O)NC(Sc1ccncn1)C(Cl)(Cl)Cl (centres undefined),inactive: 1.73%
4,O=[N+]([O-])c1ncn(CCn2ncnc2[N+](=O)[O-])n1,inactive: 5.28%
5,O=C(Nc1cc([As](=O)(O)O)ccc1O)c1ccccc1,inactive: 10.9%
6,CCOC(=O)c1ccc(NP(C)(=O)Oc2ccc(Cl)cc2)cc1 (centres undefined),inactive: 5.67%
7,CP(=O)(OC12CC3CC(CC(C3)C1)C2)OC12CC3CC(CC(C3)C1)C2,inactive: 0.961%
8,Nc1ccc2c(ccc3cccnc32)n1.O=[N+]([O-])c1cc([N+](=O)[O-])c(O)c([N+](=O)[O-])c1,inactive: 2.96%
9,CN(C)C(=O)OCCc1n(C)cc[n+]1C,inactive: 6.9%
10,CC(C)=N/N=C(\N)N[N+](=O)[O-],inactive: -4.65%
11,CN(C)C(=O)c1c([N+](=O)[O-])cc([N+](=O)[O-])cc1[N+](=O)[O-],inactive: -5.28%
12,CC1CCN(C(=O)Oc2c(Cl)cc(Cl)c3cccnc23)CC1,inactive: 2.23%
13,C[N+]1=C2C=CC=CC=C2SC12C([N+](=O)[O-])=CC([N+](=O)[O-])=C[C-]2[N+](=O)[O-] (centres undefined),inactive: 11.1%
14,Nc1ccc([As](=O)(O)c2ccc(N)cc2)cc1,inactive: -11.8%
15,CC(C)(C)c1ccc(OP(C)(=O)O)cc1,inactive: -4.18%
16,CP(=O)(Nc1ccc(Cl)cc1)Oc1ccc(F)cc1 (centres undefined),inactive: -14.5%
17,CCN(/C(=N/P(=O)(N1CCOCC1)N1CCOCC1)N1CCOCC1)c1ccc(OC)cc1,inactive: 1.07%
18,O=C(OCCCN1CCCC1)C(O)(c1ccccc1)C1CCCCC1 (centres undefined),inactive: -1.82%
19,COc1ccccc1OP(C)(=O)Nc1c(C)n(C)n(-c2ccccc2)c1=O (centres undefined),inactive: -4.14%
20,CC(=O)N1C2C3N(C(C)=O)C1C1N(C(C)=O)C(C(N1C(C)=O)N3C(C)=O)N2C(C)=O,inactive: 3.23%
21,O=[N+]([O-])c1cccc2n[nH]nc12,inactive: -1.04%
22,O=[N+]([O-])c1cc([N+](=O)[O-])c(CCNc2ccccc2)c([N+](=O)[O-])c1,inactive: -1.86%
23,CCc1nc2c(n1)c1c(non1O)c1c2no[n+]1[O-],inactive: -2.66%
24,CCc1ccc(OP(C)(=O)Nc2cccnc2)cc1 (centres undefined),inactive: -5.54%
25,CP(=O)(Oc1ccccc1)N1CCOC1=O (centres undefined),inactive: 11.7%

row,Compound,inhibition
1,Cc1ccc(NP(=O)(Oc2ccccc2)Oc2ccccc2)nc1,inactive: -5.41%
2,COc1ccc(OP(C)(=O)Nc2ccc(Br)cc2)cc1 (centres undefined),inactive: 7.71%
3,COc1ccc(C2=NCC(CBr)S2)cc1 (centres undefined),inactive: 11%
4,CCN(CC)CC(O)COC(=O)C(O)(c1ccccc1)C1CCCCC1 (centres undefined),inactive: -2.76%
5,COc1ccccc1OP(C)(=O)Nc1ccc(C)cc1C (centres undefined),inactive: -5.46%
6,CP(=O)(Nc1ccccn1)Oc1ccccc1 (centres undefined),inactive: 9.44%
7,CCc1ccc(OP(C)(=O)O)cc1,inactive: -1.44%
8,CC(C)CC(=O)NC(Sc1ccc(Cl)cc1)C(Cl)(Cl)Cl (centres undefined),inactive: -6.79%
9,Nc1cc(N)c2nonc2c1[N+](=O)[O-],inactive: 11.9%
10,Cc1c(NP(C)(=O)Oc2ccc(C(C)C)cc2)c(=O)n(-c2ccccc2)n1C (centres undefined),inactive: 2.64%
11,Cc1c2non([O-])c-2c(C)[n+](=O)[n+]1[O-],inactive: 9.83%
12,O=C(NC(Sc1ccncn1)C(Cl)(Cl)Cl)c1ccccc1 (centres undefined),inactive: 1.33%
13,Oc1ccccc1CNc1ccccn1,inactive: -8.11%
14,Cc1ccc(OP(=O)(Nc2nccs2)Oc2ccc(C)cc2)cc1,inactive: 4.16%
15,COc1ccc(OP(C)(=O)Nc2ccccn2)cc1 (centres undefined),inactive: -6.77%
16,COc1ccccc1OP(=O)(Nc1ccc(C)cn1)Oc1ccccc1OC,inactive: 8.75%
17,CN(C)CCOC(=O)C(O)(c1ccccc1)C1CCCC1 (centres undefined),inactive: 2.85%
18,Clc1ccc(Cl)c(NC2=NCC(CBr)S2)c1 (centres undefined),inactive: 11.9%
19,CN1CCCC(OC(=O)C(c2ccccc2)c2ccccc2)C1 (centres undefined),inactive: -1.76%
20,NC(=O)c1cc([N+](=O)[O-])cc([N+](=O)[O-])c1N,inactive: 13.6%
21,Cc1ccc(N/C(=N/P(=O)(N2CCOCC2)N2CCOCC2)N2CCOCC2)cc1,inactive: 7.29%
22,COc1ccccc1OP(C)(=O)Nc1ccc(Br)cc1 (centres undefined),inactive: -0.283%
23,CCN(N=Nc1nonc1N)c1nonc1N,inactive: 9.26%
24,CP(=O)(OCCOc1ccccc1)OCCOc1ccccc1,inactive: 10.6%
